The record followed here is US9872831B2, “Pharmaceutical composition of oxidised avidin suitable for inhalation” (ALFASIGMA S.P.A., priority 2011, dated 2018).

Details of series [1]: species or system Balb/c mice. The following applies: mouse, in vivo. The procedure: Balb/c mice of about 20 g were treated in the indicated sites with a solution of avidin or oxidized avidin as obtained following the procedure described at example 1 of WO2009016031 (3.0 mg/ml dissolved in 100 mM sodium acetate, pH 5.5) pre-complexed with ^111In-ST2210. Twenty four hours after injection/deposition, the mice were sacrificed by CO2 asphyxia and the treated sites analysed by means of a gamma counter. Data are reported in FIG. 1, and are expressed as the % of injected dose/100 mg of tissue (% ID/100 mg).

The nature of series [2]: Uptake of i.v. 111In-ST2210 in lung and non target organs 24 h after inhalation exposure. The following applies: 2 h after i.v. 111In-ST2210, 24 h after inhalation.
Series [3] relates to EGFR+ epidermoid carcinoma cells A431. The experiment in a line: Binding of biotinylated cetuximab to cells by cytofluorimetry. Particulars: 0.05 ng and 0.05 pg/ml, in the presence of oxidized avidin. Format: cell-based, Human. The procedure:
(§1) Human EGFR^+, epidermoid carcinoma cells A431 were incubated in PBS for 1 hour with 1 ml of an anti-EGFR monoclonal biotinylated antibody (i.e., biotinylated cetuximab) in the dose range of 0.05 pg/ml to 5 μg/ml. In one experiment the cells were previously incubated with oxidized avidin meanwhile in the first experiment, cells were only treated with biotinylated cetuximab.
After washings, biotinylated cetuximab binding was detected by cytofluorimetry after incubation with a mouse anti-human antibody conjugated with phycoerythrin (PE).

Series [4] relates to A431 cells. Briefly: Inhibition of proliferation, Cell Titer Glow assay. The series is classed as cell-based, Human. The following applies: with versus without oxidized avidin; even at 0.05 ng and 0.05 pg/ml. How it is done:
as §1
Proliferation inhibition was measured by Cell Titer Glow assay, Promega. Data are expressed as % of inhibition of cell proliferation in the absence of oxidized avidin (i.e., white bars) or in its presence (i.e., black bars).
In general terms: In ATP-based viability assays light output follows the ATP content of the culture.

Series [5] has as its system EGFR+ A431 cells. Briefly: Induction of apoptosis, Annexin V cytofluorimetry. The following applies: 15 minutes incubation, 18 hours in complete medium; with versus without AvidinOX. The series is classed as cell-based. The procedure: (§2) The cells were incubated for 15 minutes with biotinylated cetuximab (b-cetuximab) in the presence or absence of AvidinOX pre-treatment. After washings, the cells were incubated in complete medium for 18 hours. Annexin V positive cells were analysed by cytofluorimetry with FITC-Annexin V apoptosis detection kit I (BD Pharmingen).

For series [6], the system named is EGFR− SKMel28 cells. The experiment in a line: Induction of apoptosis, Annexin V cytofluorimetry. Particulars: 15 minutes incubation, 18 hours in complete medium; with versus without AvidinOX. The series is classed as cell-based. How it is done: as §2
Series [7] deals with A431 cells. Briefly: Inhibition of proliferation, CellTiter-Glow. The series is classed as cell-based, human. How it is done: (§3) Inhibition of proliferation by biotinylated cetuximab with or without pre-treatment with AvidinOX was tested on A431, A549 (i.e., lung carcinoma, low EGFR, KRAS mutated) and SKMel28 cells. For testing the effect of anchored biotinylated cetuximab on cell proliferation, 5×10^5 A431, A549 and SKMel28 cells, with and without pre-incubation with AvidinOX, were seeded in 96 wells microtiter plates (2×10^3 cells/well) in DMEM, 10% FCS. After adhesion, 100 μl of biotinylated cetuximab were added, in triplicates, in the range of 0.05 pg/ml to 5 μg/ml, in DMEM 1% FCS. The cells were washed after 15 minutes and cultivated for 48 hours in DMEM 1% FCS. Cell viability was detected by CellTiter-Glow® (Promega).

Series [8] has as its system A549 cells. The experiment in a line: Inhibition of proliferation, CellTiter-Glow. The series is classed as cell-based, human. The procedure:
as §3

In series [9] the test system is SKMel28 cells. The experiment in a line: Inhibition of proliferation, CellTiter-Glow. Format: cell-based. Particulars: 0.05 pg/ml to 5 μg/ml, 15 minutes, then 48 hours culture; EGFR−. How it is done: as §3
Where [10] appears, read: AvidinOX pre-incubated cells versus without.

For the substance “Avidin/^111In-ST2210 complex: avidin pre-complexed with 111In-ST2210 [reference compound]”, in series [1], the “tissue residence of complex” value was “did not lead to similar results”.

With “oxidized avidin/^111In-ST2210 complex: oxidized avidin pre-complexed with 111In-ST2210”, the “tissue residence of complex” value in series [1] is recorded as “did not lead to similar results”.

Take “Oxidized avidin: chemically oxidized avidin according to example 1 of WO2009016031, about 8 to 15 aldehyde moieties”: in [2], the “111In-ST2210 % ID/g Brain” value is listed as 0.002 ± 0.000 % ID/g.

With “biotinylated cetuximab: anti-EGFR monoclonal biotinylated antibody”, the “binding to A431 cells at low doses” value in series [3] is recorded as “still visible”. The “increase of anti proliferative activity owing to binding to membrane bound oxidized avidin” value in series [4] is recorded as “at least 3 times”. The entries for the “increase of pro-apoptotic effect when AvidinOX is anchored on the cell membrane” value in series [5] and in [6] were “at least 3 times” and “not of the EGFR^− cells”, respectively. The inhibition of proliferation result was “able to inhibit proliferation” in [7] (0.05 pg/ml to 5 μg/ml, 15 minutes, then 48 hours culture, high EGFR); “able to inhibit proliferation” in [8] (0.05 pg/ml to 5 μg/ml, 15 minutes, then 48 hours culture, low EGFR, KRAS mutated); “not proliferation of EGFR^− cells” in series [9]. In addition, the “inhibition of proliferation when AvidinOX-anchored on the cell surface” value in series [7] (setting [10]) and in series [8] (setting [10]) was “significantly improved” in each case.
